Results reported in the supplement of paper PMC8024199.

Experiments:
Experiment in all cases: drug sensitivity score (DSS) (DSS score); higher = more sensitive (stronger growth inhibition); extreme values may be limits of the assay
[1] = tested on: Ba/F3 P210-BCR-ABL1 RUNX1-/- (mouse)
Outline: (§1)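 A drug sensitivity score summarised each dose-response curve, with luminescence from CellTiter-Glo scaled between vehicle and positive-control wells. Values are the mean of two replicates. The cells were mouse Ba/F3 clones that were CRISPR/Cas9-edited at a target exon or were edited controls, exposed on pre-printed 384-well plates to a 528-compound library at five concentrations spanning a 10,000-fold range. Plates held 10,000 cells per well in RPMI with 10% FBS for 72 h at 37 °C and 5% CO2.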

[2] = tested on: Ba/F3 P210-BCR-ABL1 RUNX1-/mut (mouse)
Outline: as §1

[3] = tested on: Ba/F3 P210-BCR-ABL1 RUNX1wt/wt control (mouse)
Outline: as §1

Measured: drug sensitivity score

NCc1ccc(OCCCc2sc(-c3ccc4c(c3)/C(=N/Nc3nc5ccccc5s3)CCC4)nc2C(=O)O)cc1 [WEHI-539]
0: all assays above
